Experimental data as given in patent publication EP4831178A1, “ARYL HETEROCYCLIC KV1.3 INHIBITOR, AND PREPARATION METHOD THEREFOR AND USE THEREOF” (dated 2026).

Amino acid sequences for entries named in this document (tags omitted).
UniProt P22001, whole entry: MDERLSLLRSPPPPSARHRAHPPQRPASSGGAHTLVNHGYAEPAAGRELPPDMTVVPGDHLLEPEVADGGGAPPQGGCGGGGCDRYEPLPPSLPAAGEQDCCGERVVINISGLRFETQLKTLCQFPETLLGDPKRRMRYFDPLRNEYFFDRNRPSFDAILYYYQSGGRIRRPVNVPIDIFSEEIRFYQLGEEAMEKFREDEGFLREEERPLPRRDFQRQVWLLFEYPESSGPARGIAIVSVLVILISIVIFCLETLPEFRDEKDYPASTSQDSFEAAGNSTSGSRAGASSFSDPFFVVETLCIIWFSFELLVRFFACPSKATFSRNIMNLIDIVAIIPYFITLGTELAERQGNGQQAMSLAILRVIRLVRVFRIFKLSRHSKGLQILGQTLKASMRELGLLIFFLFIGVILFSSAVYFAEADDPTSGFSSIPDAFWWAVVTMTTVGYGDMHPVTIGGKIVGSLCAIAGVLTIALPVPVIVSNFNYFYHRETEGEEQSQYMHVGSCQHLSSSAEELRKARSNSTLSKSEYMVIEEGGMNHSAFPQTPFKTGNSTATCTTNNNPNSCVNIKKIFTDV
UniProt P16389, whole entry: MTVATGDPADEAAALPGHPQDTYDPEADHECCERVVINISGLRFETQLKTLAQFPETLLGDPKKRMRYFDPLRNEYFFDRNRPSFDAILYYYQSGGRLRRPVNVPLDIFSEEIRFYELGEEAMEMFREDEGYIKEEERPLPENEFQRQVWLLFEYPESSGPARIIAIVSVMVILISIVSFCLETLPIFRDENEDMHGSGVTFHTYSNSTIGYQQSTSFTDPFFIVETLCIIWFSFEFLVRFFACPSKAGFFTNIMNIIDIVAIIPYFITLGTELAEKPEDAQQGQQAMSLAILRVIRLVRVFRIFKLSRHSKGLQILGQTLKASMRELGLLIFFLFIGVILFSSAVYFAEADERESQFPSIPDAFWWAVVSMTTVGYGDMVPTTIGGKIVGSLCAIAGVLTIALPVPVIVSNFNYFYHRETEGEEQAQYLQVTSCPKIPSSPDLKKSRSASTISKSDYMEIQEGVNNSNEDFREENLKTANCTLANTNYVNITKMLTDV
UniProt P22460, whole entry: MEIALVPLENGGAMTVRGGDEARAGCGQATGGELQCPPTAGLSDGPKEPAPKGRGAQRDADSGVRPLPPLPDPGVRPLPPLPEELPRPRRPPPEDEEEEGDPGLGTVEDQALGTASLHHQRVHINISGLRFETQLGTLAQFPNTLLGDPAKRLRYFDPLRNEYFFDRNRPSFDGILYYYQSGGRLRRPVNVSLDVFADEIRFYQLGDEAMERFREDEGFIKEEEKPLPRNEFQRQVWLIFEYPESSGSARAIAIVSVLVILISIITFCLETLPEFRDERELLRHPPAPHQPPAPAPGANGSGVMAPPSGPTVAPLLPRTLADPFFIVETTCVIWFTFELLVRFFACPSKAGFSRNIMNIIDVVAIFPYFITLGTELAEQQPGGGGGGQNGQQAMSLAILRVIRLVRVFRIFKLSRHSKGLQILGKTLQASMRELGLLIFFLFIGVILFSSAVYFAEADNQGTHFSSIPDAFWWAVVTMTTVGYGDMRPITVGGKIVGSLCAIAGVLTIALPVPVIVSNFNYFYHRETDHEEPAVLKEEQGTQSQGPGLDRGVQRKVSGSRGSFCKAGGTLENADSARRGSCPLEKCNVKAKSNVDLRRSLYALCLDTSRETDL
UniProt Q09470, whole entry: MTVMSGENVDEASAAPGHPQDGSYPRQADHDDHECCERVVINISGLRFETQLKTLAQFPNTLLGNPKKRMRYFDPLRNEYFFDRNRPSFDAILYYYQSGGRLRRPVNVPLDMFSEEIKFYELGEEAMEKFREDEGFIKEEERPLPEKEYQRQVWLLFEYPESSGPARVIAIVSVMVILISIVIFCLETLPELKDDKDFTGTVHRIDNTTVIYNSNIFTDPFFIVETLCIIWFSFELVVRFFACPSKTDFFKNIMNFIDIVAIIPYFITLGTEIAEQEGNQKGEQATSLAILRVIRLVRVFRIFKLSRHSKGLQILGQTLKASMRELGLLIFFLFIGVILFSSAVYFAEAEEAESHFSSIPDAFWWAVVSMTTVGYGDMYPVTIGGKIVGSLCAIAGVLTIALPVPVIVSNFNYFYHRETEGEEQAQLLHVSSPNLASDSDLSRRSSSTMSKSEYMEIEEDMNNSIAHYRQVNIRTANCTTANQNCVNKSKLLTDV
UniProt Q12809, whole entry: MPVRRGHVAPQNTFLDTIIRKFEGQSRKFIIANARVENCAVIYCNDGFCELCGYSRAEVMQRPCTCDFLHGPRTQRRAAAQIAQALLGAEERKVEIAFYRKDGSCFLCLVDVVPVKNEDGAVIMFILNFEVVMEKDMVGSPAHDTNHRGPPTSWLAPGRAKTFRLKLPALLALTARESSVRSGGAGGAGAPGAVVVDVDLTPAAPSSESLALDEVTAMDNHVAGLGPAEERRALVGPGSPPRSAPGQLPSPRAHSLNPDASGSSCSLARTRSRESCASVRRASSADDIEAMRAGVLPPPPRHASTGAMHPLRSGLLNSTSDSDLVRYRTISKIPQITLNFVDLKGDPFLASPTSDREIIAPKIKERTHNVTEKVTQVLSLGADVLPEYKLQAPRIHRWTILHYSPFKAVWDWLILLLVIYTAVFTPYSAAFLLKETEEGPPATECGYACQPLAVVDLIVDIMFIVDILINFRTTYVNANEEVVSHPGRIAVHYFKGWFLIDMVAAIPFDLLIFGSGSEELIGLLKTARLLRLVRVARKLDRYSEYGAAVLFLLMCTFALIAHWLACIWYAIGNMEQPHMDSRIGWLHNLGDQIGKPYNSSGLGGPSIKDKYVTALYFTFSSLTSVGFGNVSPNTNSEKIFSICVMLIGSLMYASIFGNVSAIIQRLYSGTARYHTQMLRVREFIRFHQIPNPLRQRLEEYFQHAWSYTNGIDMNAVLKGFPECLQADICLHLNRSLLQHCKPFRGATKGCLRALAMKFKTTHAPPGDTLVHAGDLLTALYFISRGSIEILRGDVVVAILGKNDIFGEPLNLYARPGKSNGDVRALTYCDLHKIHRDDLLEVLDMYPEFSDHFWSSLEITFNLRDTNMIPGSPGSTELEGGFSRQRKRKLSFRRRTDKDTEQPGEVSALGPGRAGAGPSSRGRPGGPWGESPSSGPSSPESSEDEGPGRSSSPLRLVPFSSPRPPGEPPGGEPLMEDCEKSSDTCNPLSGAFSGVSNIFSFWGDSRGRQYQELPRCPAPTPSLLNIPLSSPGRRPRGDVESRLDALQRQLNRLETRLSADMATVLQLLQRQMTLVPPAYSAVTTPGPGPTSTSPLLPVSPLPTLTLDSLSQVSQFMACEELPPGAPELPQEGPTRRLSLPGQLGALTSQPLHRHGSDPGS
UniProt P22459, whole entry: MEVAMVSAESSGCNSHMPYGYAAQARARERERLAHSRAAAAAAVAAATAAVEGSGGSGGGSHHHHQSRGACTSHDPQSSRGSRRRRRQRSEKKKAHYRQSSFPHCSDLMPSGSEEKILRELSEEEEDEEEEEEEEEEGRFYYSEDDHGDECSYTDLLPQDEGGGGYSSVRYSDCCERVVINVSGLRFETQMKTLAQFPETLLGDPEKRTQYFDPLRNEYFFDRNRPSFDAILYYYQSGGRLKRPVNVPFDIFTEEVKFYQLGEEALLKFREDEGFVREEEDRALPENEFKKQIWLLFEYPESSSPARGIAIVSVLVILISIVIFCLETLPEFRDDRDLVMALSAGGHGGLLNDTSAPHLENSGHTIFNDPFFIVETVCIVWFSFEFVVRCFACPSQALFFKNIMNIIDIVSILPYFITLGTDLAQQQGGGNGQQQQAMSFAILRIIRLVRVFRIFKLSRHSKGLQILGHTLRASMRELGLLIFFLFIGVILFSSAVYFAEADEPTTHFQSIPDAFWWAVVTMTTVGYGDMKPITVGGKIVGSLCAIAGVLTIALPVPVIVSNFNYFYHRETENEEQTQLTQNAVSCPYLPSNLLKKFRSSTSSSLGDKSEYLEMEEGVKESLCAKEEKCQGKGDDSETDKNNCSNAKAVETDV

Columns and labels:
[1] = target: Kv1.3 (Homo sapiens, UniProt P22001); experiment: Assay for inhibitory activity against Kv1.X, whole-cell patch-clamp (peak current); details: read-out: IC50 Kv1.3, HEK293 cells stably expressing Kv1.3, room temperature
Experimental: (§1) HEK293 cells stably expressing Kv1.X (Kv1.1, Kv1.2, Kv1.3, Kv1.4, Kv1.5) potassium channels were cultured in a DMEM medium containing 10% fetal bovine serum and 800 µg/mL G418 (geneticin) at a culture temperature of 37 °C and a carbon dioxide concentration of 5%.
(§2) The extracellular solution contained 40 mM NaCl, 3.5 mM KCl, 1 mM MgCl2•6H2O, 2 mM CaCl2•2H2O, 10 mM D-glucose, 10 mM HEPES, 1.25 mM NaH2PO4•2H2O, and the pH was adjusted to 7.4 with NaOH. The intracellular solution contained 20 mM KCl, 115 mM K-Aspartic, 1 mM MgCl2•6H2O, 5 mM EGTA, 10 mM HEPES, 2 mM Na2-ATP, and the pH was adjusted to 7.2 with KOH.
(§3) The voltage stimulation protocol for recording whole-cell Kv1.X potassium currents via patch-clamp is as follows: After formation of a whole-cell seal, the cell membrane voltage was clamped at -80 mV, and then stepped to +40 mV for 500 ms. Data were acquired repeatedly every 30 s and the effect of the drug on Kv1.X current was observed. The test data were acquired by the EPC-10 amplifier (HEKA) and stored in the PatchMaster (HEKA) software.
(§4) Recording electrodes were drawn from capillary glass tubes using a microelectrode puller. Under an inverted microscope, the recording electrode was brought into contact with the cell surface by manipulating a microelectrode manipulator. Negative-pressure suction was applied to form a GΩ seal. After formation of the GΩ seal, a rapid capacitance compensation was given. The application of negative pressure was continued to rupture the cell membrane, forming a whole-cell recording mode. Then, a slow capacitance compensation was given, and the membrane capacitance and series resistance were recorded. No current leakage compensation was provided.
(§5) Once the whole-cell recorded Kv1.X current stabilized, drug administration was started. Each drug concentration was allowed to act for 5 min (or until the current reached a steady state) before the next concentration was tested. Multiple concentrations were tested for each test compound. The cover glass plated with the cells was placed in a recording chamber of the inverted microscope. The test compound and the compound-free extracellular solution sequentially flowed through the recording chamber from low concentrations to high concentrations using a gravity perfusion method to act on the cells, and liquid exchange was performed using a vacuum pump during recording. For each cell, the current detected in the compound-free extracellular solution was used as its own control group. The test was independently repeated three times using at least three cells per concentration. All electrophysiological experiments were performed at room temperature.
(§6) First, the peak current elicited by each drug concentration was normalized to the peak current of the blank control ( (Peak currentcompound)/(Peak currentcontrol) [formula] ), and then the inhibition rate corresponding to each drug concentration was calculated ( 1−(Peak currentcompound)/(Peak currentcontrol) [formula] ). Subsequently, the mean, standard deviation (SD), and standard error (SE) were calculated for the inhibition rate corresponding to each concentration. Y = Bottom + (Top−Bottom)/(1+10((LogIC50−X)×HillSlope)) [formula]
(§7) Using the above equation, the IC50 value for each compound was calculated, and the dose-dependent effect was subjected to non-linear fitting, where IC50 is the half maximal inhibitory concentration. IC50 calculation and curve fitting were performed using the GraphPad Prism software.

[2] = target: Kv1.2 (Homo sapiens, UniProt P16389); experiment: Assay for inhibitory activity against Kv1.X, whole-cell patch-clamp (steady state current); details: read-out: IC50 Kv1.2, HEK293 cells stably expressing Kv1.2
Experimental: as §1, §2, §3
(§8) Recording electrodes were drawn from capillary glass tubes using a microelectrode puller. […] Then, a slow capacitance compensation was given, and the membrane capacitance and series resistance were recorded. […]
(§9) Once the whole-cell recorded Kv1.X current stabilized, drug administration was started. […] For each cell, the current detected in the compound-free extracellular solution was used as its own control group. […]
(§10) First, the current elicited by each drug concentration was normalized to the current of the blank control ( (Steady state currentcompound)/(Steady state currentcontrol) [formula] ), and then the inhibition rate corresponding to each drug concentration was calculated ( 1−(Steady state currentcompound)/(Steady state currentcontrol) [formula] ).
(§11) Using the above equation, the IC50 value for each compound was calculated, and the dose-dependent effect was subjected to non-linear fitting, where IC50 is the half maximal inhibitory concentration. […]

[3] = target: Kv1.5 (Homo sapiens, UniProt P22460); experiment: as above; details: read-out: IC50 Kv1.5, HEK293 cells stably expressing Kv1.5
Experimental: as §1, §2, §3, §8, §9, §10, §11

[4] = target: Kv1.1 (Homo sapiens, UniProt Q09470); experiment: as above; details: read-out: IC50 Kv1.1, HEK293 cells stably expressing Kv1.1
Experimental: as §1, §2, §3, §8, §9, §10, §11

[5] = target: hERG (Homo sapiens, UniProt Q12809); experiment: Assay for inhibitory activity against hERG, whole-cell voltage-clamp; details: read-out: IC50 hERG; CHO cells stably expressing hERG; peak tail current at -50 mV
Experimental: CHO cells stably expressing hERG were cultured in 35-mm diameter cell culture dishes at 37 °C in a 5% CO2 incubator. The cells were passaged at a ratio of 1:5 every 48 h. The medium recipe is as follows: 90% F12 (Invitrogen), 10% fetal bovine serum (Gibco), 100 µg/mL G418 (Invitrogen), and 100 µg/mL Hygromycin B (Invitrogen). On the day of the test, the cell culture medium was aspirated, and the cells were rinsed once with the extracellular solution. Then, a 0.25% Trypsin-EDTA solution (Invitrogen) was added, and the cells were digested at room temperature for 3-5 min. The digestion solution was then aspirated, and the cells were resuspended in the extracellular solution and transferred to an experimental dish for electrophysiological recording for later use.
hERG potassium channel currents were recorded at room temperature by the whole-cell voltage-clamp technique in the CHO cells stably expressing hERG potassium channels. Glass microelectrodes were formed by pulling a glass electrode blank (BF150-86-10, Sutter) using a puller. […] The clamping voltage and data recording were controlled and recorded by a computer with the pClamp software, with a sampling frequency of 10 kHz and a filtering frequency of 2 kHz. […] This voltage stimulation was applied every 5 s, and after the hERG potassium currents were determined to be stable (for 1 min), the drug application was started. […]

[6] = target: Kv1.4 (Homo sapiens, UniProt P22459); experiment: Assay for inhibitory activity against Kv1.X, whole-cell patch-clamp (peak current); details: read-out: IC50 Kv1.4, HEK293 cells stably expressing Kv1.4
Experimental: as §1, §2, §3, §4, §5, §6, §7

Row | SMILES | pIC50 [1] | also measured
1 | Oc1ccc(Cl)c(Cl)c1[C@H]1Cc2cn([C@H]3CCNC3)nc2C1 | 8.18 | 
2 | Oc1ccc(Cl)c(Cl)c1[C@@H]1Cc2ncc([C@H]3CCNC3)n2C1 | 8.85 | 
3 | Oc1ccc(Cl)c(Cl)c1[C@@H]1Cc2ncc([C@@H]3CCNC3)n2C1 | 9.32 | pIC50 [2]: < 4.00; pIC50 [3]: < 4.00; pIC50 [4]: 4.09; pIC50 [5]: 4.51; pIC50 [6]: 5.91

Now from value to compound, other results behind:

Row | pIC50 [1] | SMILES | also measured
4 | 7.73 | Oc1ccc(Cl)c(Cl)c1[C@H]1Cc2cnn([C@@H]3CCNC3)c2C1 | 
5 | 8.13 | Oc1ccc(Cl)c(Cl)c1[C@@H]1Cc2cn([C@H]3CCNC3)nc2C1 | 
6 | 8.42 | Oc1ccc(Cl)c(Cl)c1[C@@H]1Cc2cnn([C@@H]3CCNC3)c2C1 | 

pIC50: −log10 of the molar value.
